Assay results reported in ChEMBL document CHEMBL4417637, “Sensitization of cancer cells to nampt inhibitors by nicotinic acid phosphoribosyltransferase neutralization” (2017).

Key:
[1] = target: T1, Nicotinate phosphoribosyltransferase (Homo sapiens) (UniProt Q6XQN6); experiment: Inhibition of NAPRT in human OVCAR5 cells assessed as potentiation of NAMPT inhibitor FK866-induced cytotoxicity by measuring reduction in cell viability at 300 uM to 1 mM incubated for 72 hrs by SRB assay; format: cell-based
T1 sequence (whole entry): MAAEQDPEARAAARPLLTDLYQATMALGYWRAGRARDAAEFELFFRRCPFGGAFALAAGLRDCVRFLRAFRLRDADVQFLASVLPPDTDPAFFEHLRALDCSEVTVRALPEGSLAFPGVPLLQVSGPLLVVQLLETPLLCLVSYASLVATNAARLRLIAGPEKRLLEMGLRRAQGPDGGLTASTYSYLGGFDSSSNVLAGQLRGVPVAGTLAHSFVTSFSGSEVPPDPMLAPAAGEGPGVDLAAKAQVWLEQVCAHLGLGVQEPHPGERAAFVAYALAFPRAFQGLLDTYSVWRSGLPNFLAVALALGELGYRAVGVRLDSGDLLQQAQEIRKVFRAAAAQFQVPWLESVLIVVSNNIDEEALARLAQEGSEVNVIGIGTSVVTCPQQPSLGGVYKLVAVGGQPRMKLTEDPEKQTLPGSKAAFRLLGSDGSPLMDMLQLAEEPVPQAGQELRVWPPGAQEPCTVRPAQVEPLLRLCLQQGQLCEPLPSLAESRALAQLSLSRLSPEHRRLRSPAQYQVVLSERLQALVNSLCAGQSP

[2] = target: T1, Nicotinate phosphoribosyltransferase (Homo sapiens); experiment: Inhibition of NAPRT in human Jurkat cells assessed as potentiation of NAMPT inhibitor FK866-induced apoptosis by measuring reduction in cell viability at 3.5 mM prer-incubated with IC50 level of FK866 for 48 hrs followed by compound addition and further incubated for 48 hrs by Annexin-V/7-AAD staining based flow cytometry
[3] = target: T1, Nicotinate phosphoribosyltransferase (Homo sapiens); experiment: Inhibition of NAPRT in human ML2 cells assessed as potentiation of NAMPT inhibitor FK866-induced apoptosis by measuring reduction in cell viability at 3.5 mM prer-incubated with IC50 level of FK866 for 48 hrs followed by compound addition and further incubated for 48 hrs by Annexin-V/7-AAD staining based flow cytometry
[4] = target: T1, Nicotinate phosphoribosyltransferase (Homo sapiens); experiment: Inhibition of NAPRT in human NOMO cells assessed as potentiation of NAMPT inhibitor FK866-induced apoptosis by measuring reduction in cell viability at 3.5 mM prer-incubated with IC50 level of FK866 for 48 hrs followed by compound addition and further incubated for 48 hrs by Annexin-V/7-AAD staining based flow cytometry
[5] = target: T1, Nicotinate phosphoribosyltransferase (Homo sapiens); experiment: Inhibition of NAPRT in human NB4 cells assessed as potentiation of NAMPT inhibitor FK866-induced apoptosis by measuring reduction in cell viability at 3.5 mM prer-incubated with IC50 level of FK866 for 48 hrs followed by compound addition and further incubated for 48 hrs by Annexin-V/7-AAD staining based flow cytometry
[6] = target: T1, Nicotinate phosphoribosyltransferase (Homo sapiens); experiment: Inhibition of NAPRT in human NAMALWA cells assessed as potentiation of NAMPT inhibitor FK866-induced apoptosis by measuring reduction in cell viability at 3.5 mM prer-incubated with IC50 level of FK866 for 48 hrs followed by compound addition and further incubated for 48 hrs by Annexin-V/7-AAD staining based flow cytometry
[7] = target: T1, Nicotinate phosphoribosyltransferase (Homo sapiens); experiment: Inhibition of NAPRT in human Daudi cells assessed as potentiation of NAMPT inhibitor FK866-induced apoptosis by measuring reduction in cell viability at 3.5 mM prer-incubated with IC50 level of FK866 for 48 hrs followed by compound addition and further incubated for 48 hrs by Annexin-V/7-AAD staining based flow cytometry
[8] = target: T1, Nicotinate phosphoribosyltransferase (Homo sapiens); experiment: Inhibition of NAPRT in human Raji cells assessed as potentiation of NAMPT inhibitor FK866-induced apoptosis by measuring reduction in cell viability at 3.5 mM prer-incubated with IC50 level of FK866 for 48 hrs followed by compound addition and further incubated for 48 hrs by Annexin-V/7-AAD staining based flow cytometry
[9] = target: T1, Nicotinate phosphoribosyltransferase (Homo sapiens); experiment: Inhibition of NAPRT in human ARH77 cells assessed as potentiation of NAMPT inhibitor FK866-induced apoptosis by measuring reduction in cell viability at 3.5 mM prer-incubated with IC50 level of FK866 for 48 hrs followed by compound addition and further incubated for 48 hrs by Annexin-V/7-AAD staining based flow cytometry
[10] = target: T1, Nicotinate phosphoribosyltransferase (Homo sapiens); experiment: Inhibition of NAPRT in human RPMI8226 cells assessed as potentiation of NAMPT inhibitor FK866-induced apoptosis by measuring reduction in cell viability at 3.5 mM prer-incubated with IC50 level of FK866 for 48 hrs followed by compound addition and further incubated for 48 hrs by Annexin-V/7-AAD staining based flow cytometry
[11] = target: T1, Nicotinate phosphoribosyltransferase (Homo sapiens); experiment: Inhibition of NAPRT in human U266 cells assessed as potentiation of NAMPT inhibitor FK866-induced apoptosis by measuring reduction in cell viability at 3.5 mM prer-incubated with IC50 level of FK866 for 48 hrs followed by compound addition and further incubated for 48 hrs by Annexin-V/7-AAD staining based flow cytometry

Measured: inhibition

CC(=O)Oc1ccccc1C(=O)O [ASPIRIN]
active: all assays above

The source made the active and inactive calls.
